Assay results reported in patent US20030216321A1.

Columns and labels:
[1] = target: low density lipoprotein receptor-related protein (LRP-1), purified; test: solid phase competition against ^125I-thrombin:PAI-1 on LRP-1-coated wells
[2] = target: glycoprotein 330 / LRP-2, purified; test: solid phase competition against ^125I-thrombin:PAI-1 on LRP-2-coated wells
[3] = target: low density lipoprotein receptor-related protein (LRP-1), purified; test: solid phase binding, homologous ligand displacement, single class of sites (program Ligand)
[4] = target: glycoprotein 330 / LRP-2, purified; test: as above

Substance | Ki [1] [nM] | Ki [2] [nM] | Kd [3] [nM] | Kd [4] [nM]
human α-thrombin (from UniProt P00734 328-622) (enzyme) | > 700 | > 700 | – | –
thrombin:PAI-1 complex (from UniProt P00734 328-622) | – | – | 3.3 | 13
